# Measurements reported in DBAASP.
# System: Escherichia coli K-12
# Assay: ≥ marks a high value that may be exact or a test limit, other limits are often not marked, values filed in µg/mL are converted to µM
smiles,measurement,value
CC(C)C[C@H](NC(=O)[C@H](CC(C)C)NC(=O)[C@H](CC(N)=O)NC(=O)[C@H](CCCCN)NC(=O)[C@H](CC(C)C)NC(=O)[C@H](CC(N)=O)NC(=O)[C@@H](N)C(C)C)C(=O)N[C@@H](CCCN=C(N)N)C(=O)O [VNLKNLLR],MIC,≥ 128 µM
